{"source": "patent US20220362122A1", "about": "“Hair Treatment Compositions With Amine Derivatives” (ELC Management LLC, priority 2021, published 2022)", "tested_on": "keratin in hair"}
{"substance": "Ammonium hydroxide [reference compound]", "values": [{"measurement": "% Relative damage level compared to NaOH (TVirgin-TAlkalizer)/(TVirgin-TNaOH)", "value": 19.52, "unit": "%"}]}
